The source of these data is US20260384459A1, “SUBSTITUTED QUINAZOLINE DERIVATIVES AND METHODS OF USE THEREOF” (published 2026).

Protein sequences, listed by entry. Tags and fused reporters are not part of them. Chains listed by the source or under a name are the forms on record and can include a tag or linker. Residues count along the entry.
UniProt P18031, whole entry: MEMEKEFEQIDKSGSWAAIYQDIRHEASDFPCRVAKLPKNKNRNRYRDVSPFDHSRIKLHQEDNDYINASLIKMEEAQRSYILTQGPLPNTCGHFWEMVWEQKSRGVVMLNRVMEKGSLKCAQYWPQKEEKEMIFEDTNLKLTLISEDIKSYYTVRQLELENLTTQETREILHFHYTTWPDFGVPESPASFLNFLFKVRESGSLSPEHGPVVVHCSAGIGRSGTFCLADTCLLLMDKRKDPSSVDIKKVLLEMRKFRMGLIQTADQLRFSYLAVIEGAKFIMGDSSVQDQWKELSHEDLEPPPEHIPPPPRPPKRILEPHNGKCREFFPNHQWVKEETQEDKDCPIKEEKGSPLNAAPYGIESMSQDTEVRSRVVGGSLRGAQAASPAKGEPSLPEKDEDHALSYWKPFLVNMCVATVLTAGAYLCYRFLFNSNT
UniProt P17706, 1-387 with tags or gaps: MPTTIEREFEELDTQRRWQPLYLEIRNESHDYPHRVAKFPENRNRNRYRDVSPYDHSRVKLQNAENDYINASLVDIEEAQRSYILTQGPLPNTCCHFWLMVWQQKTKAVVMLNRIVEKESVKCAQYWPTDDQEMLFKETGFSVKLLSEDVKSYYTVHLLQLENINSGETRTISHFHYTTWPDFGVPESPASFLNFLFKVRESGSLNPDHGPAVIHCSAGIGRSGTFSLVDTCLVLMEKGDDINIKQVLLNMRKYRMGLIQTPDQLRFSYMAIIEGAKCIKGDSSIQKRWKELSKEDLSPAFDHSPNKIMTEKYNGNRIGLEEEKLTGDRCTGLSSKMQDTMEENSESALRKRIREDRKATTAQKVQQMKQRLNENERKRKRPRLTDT

Experiment [1] addresses human PTPN1 (Homo sapiens, UniProt P18031). As to the kind of experiment: Human PTPN1 Biochemical Assay. The settings on record: read-out: PTP1B IC50; human PTPN1 (1-435), DiFMUP substrate, 30 min preincubation, 1 hour at room temperature, pH 7.4. On the procedure: Human PTPN1 Biochemical Assay
(§1) For this assay, test compounds were dissolved in DMSO, and 10-point serial 3-fold dilution series in DMSO were prepared in Echo Qualified 384-well Polypropylene Microplates (Labcyte, San Jose, CA) (top concentration 50 μM). Assay plates (384-well low volume black plates; Corning #3820, Corning, NY) were prepared by dispensing 50 nL of test compounds, and DMSO (for high and low controls) by ECHO acoustic dispenser (Labcyte, San Jose CA). This was followed by addition of 5 μL of 6 nM human PTPN1 (1-435) solution (prepared in the assay buffer, 50 mM Tris pH 7.4, 150 mM NaCl, 0.01% Tween20, 0.5 mM dithiothreitol) to all wells except the low control. 5 μl of assay buffer was added into the low control. The plate was incubated for 30 minutes at room temperature. Subsequently, 5 μl of 100 μM DiFMUP (6,8-difluoro-4-methylumbelliferyl phosphate) solution (prepared in assay buffer from 10 mM stock in DMSO) was added to the assay plate, and incubated for 1 hour at room temperature. For detection, assay plates were read on SpectraMax Microplate Reader (Molecular Devices), with Excitation wavelength=360 nm and Emission wavelength=460 nm. Test compound effects were normalized to the window defined by the controls. DMSO/buffer, and DMSO/150 pM human PTPN1. Calculated % effects were fit using a 4-parameter algorithm, and EC50 was reported.

The target in experiment [2] is human PTPN2 (Homo sapiens, UniProt P17706). The experiment in a line: Human PTPN2 Biochemical Assay. The settings on record: read-out: PTPN2 IC50; human PTPN2 (1-387), DiFMUP substrate, 30 min preincubation, 1 hour at room temperature, pH 7.4. The protocol: Human PTPN2 Biochemical Assay
as §1, with “of 0.2” for “of 6”, “human PTPN2 (1-387)” for “human PTPN1 (1-435)”, “the controls,” for “the controls.”, “and DMSO/50” for “and DMSO/150”, “human PTPN2.” for “human PTPN1.”

Experiment [3] deals with xenografts. Conditions: SCID-beige mice; cited from earlier work.
Experiment [4] relates to ErbB2-driven mammary tumors. Conditions: transgenic mice; cited from earlier work.
Experiment [5] has as its system retinal neovascularization. Conditions: mice; cited from earlier work.

For `O=P(O)(O)C(F)(F)c1cc2nc(OCCCC(F)(F)F)ncc2cc1Br`, the IC50 came to 169 nM in experiment [1] and 189 nM in experiment [2].

With `CS(=O)(=O)CCCOc1ncc2cc(Br)c(C(F)(F)P(=O)(O)O)cc2n1`, in experiment [2], the IC50 came to 429 nM.

Take `CC(C)[C@@H](CC[C@@H](C)[C@H]1CC[C@H]2[C@@H]3[C@H](O)C[C@H]4C[C@@H](NCCCNCCCCNCCCN)CC[C@]4(C)[C@H]3CC[C@]12C)OS(=O)(=O)O`: the growth of xenografts result in experiment [3] was “attenuates the growth of xenografts”. Besides, in experiment [4], the “metastasis of ErbB2-driven mammary tumors” value is recorded as “the metastasis of ErbB2-driven mammary tumors”.

Turning to `CC(C)(O)CCOc1ncc2cc(Br)c(C(F)(F)P(=O)(O)O)cc2n1`, the IC50 in experiment [1] worked out at 162 nM; in experiment [2] it was 82 nM.

With `CC(F)(F)CCCOc1ncc2cc(Br)c(C(F)(F)P(=O)(O)O)cc2n1`, the IC50 in experiment [1] was 121 nM; in experiment [2], 167 nM.

On to `O=P(O)(O)C(F)(F)c1cc2nc(NC[C@H]3CC3(F)F)ncc2cc1Br`, for which the IC50 in experiment [1] and in experiment [2] was 1010 nM in each case.

Consider `O=P(O)(O)C(F)(F)c1cc2nc(OCC3CC3(F)F)ncc2cc1Br` (single isomer, unassigned), for which the IC50 in experiment [1] was 428 nM; in experiment [2] it was 467 nM.

For `O=P(O)(O)C(F)(F)c1cc2nc(NCCCC(F)(F)F)ncc2cc1Br`, the concentration for half-maximal inhibition (IC50) in experiment [1] is 179 nM; in experiment [2] it was 225 nM.

As for `CC(F)(F)CCCNc1ncc2cc(Br)c(C(F)(F)P(=O)(O)O)cc2n1`, the IC50 in experiment [1] worked out at 401 nM; in experiment [2], 505 nM.

`O=C(Nc1ccon1)c1ncc2cc(Br)c(C(F)(F)P(=O)(O)O)cc2n1`: the IC50 in experiment [1] is 117 nM; in experiment [2], 155 nM.

Regarding `O=P(O)(O)C(F)(F)c1cc2nc(OCC3CC3(F)F)ncc2cc1Br` (centres unmarked), the 50% inhibitory concentration (IC50) in experiment [1] was 598 nM; in experiment [2] it was 1030 nM.

In the case of `O=P(O)(O)C(F)(F)c1cc2nc(OCCC3CCCS3(=O)=O)ncc2cc1Br` (centres unmarked), the IC50 in experiment [1] came out at 204 nM; in experiment [2] it was 223 nM.

As for `CCOc1ncc2cc(Br)c(C(F)(F)P(=O)(O)O)cc2n1`, the IC50 in experiment [1] was 212 nM; in experiment [2], 265 nM.

In the case of `N#Cc1cc2cnc(NCCCC(F)(F)F)nc2cc1C(F)(F)P(=O)(O)O`, the IC50 in experiment [1] was determined as 186 nM; in experiment [2], 296 nM.

`NS(=O)(=O)CCCNc1ncc2cc(Br)c(C(F)(F)P(=O)(O)O)cc2n1`: the IC50 came out at 613 nM in experiment [1] and 686 nM in experiment [2].

As for `N#Cc1cc2cnc(NCCCS(N)(=O)=O)nc2cc1C(F)(F)P(=O)(O)O`, the IC50 in experiment [1] was found to be 571 nM; in experiment [2], 727 nM.

In the case of `O=P(O)(O)C(F)(F)c1cc2nc(NCC[C@@H]3CCCS3(=O)=O)ncc2cc1Br`, the figures for the IC50 in experiment [1] and in experiment [2] were 633 nM and 702 nM, respectively.

For the compound `NS(=O)(=O)CCCOc1ncc2cc(Br)c(C(F)(F)P(=O)(O)O)cc2n1`, the values for the IC50 in experiment [1] and in experiment [2] were 250 nM and 178 nM, respectively.

`CS(=O)(=O)CCCNc1ncc2cc(Br)c(C(F)(F)P(=O)(O)O)cc2n1`: the 50% inhibitory concentration (IC50) in experiment [1] is 1120 nM; in experiment [2], 1610 nM.

With `Cc1c(C)c2c(c(C)c1O)CCC(C)(COc1ccc(CC3SC(=O)NC3=O)cc1)O2` (centres unmarked), the “development of retinal neovascularization” value in experiment [5] was “inhibit the development of retinal neovascularization”.

In the case of `CN(CCOc1ccc(CC2SC(=O)NC2=O)cc1)c1ccccn1` (centres unmarked), the “development of retinal neovascularization” value in experiment [5] was “inhibit the development of retinal neovascularization”.

On to `O=P(O)(O)C(F)(F)c1cc2nc(OCC[C@@H]3CCCS3(=O)=O)ncc2cc1Br`, for which the IC50 in experiment [1] turned out to be 308 nM; in experiment [2], 403 nM.

As to `O=P(O)(O)C(F)(F)c1cc2nc(NC[C@@H]3CC3(F)F)ncc2cc1Br`, the IC50 in experiment [1] amounted to 756 nM; in experiment [2] it was 802 nM.

For the compound `CC(C)(O)CCNc1ncc2cc(Br)c(C(F)(F)P(=O)(O)O)cc2n1`, the 50% inhibitory concentration (IC50) in experiment [1] is 180 nM; in experiment [2], 245 nM.

Take `O=P(O)(O)C(F)(F)c1cc2nc(NCC[C@H]3CCCS3(=O)=O)ncc2cc1Br`: the IC50 in experiment [1] is 755 nM; in experiment [2], 975 nM.
